Results: ChEMBL document CHEMBL5346881 (Eur J Med Chem, 2023)

Test: Acute toxicity in ip dosed CB17 SCID mouse assessed as lethal dose
Format: organism-based
Conditions: in vivo

O=C(O)[C@@H](O)COc1ccc(N(CCCl)CCCl)cc1
LD10: 18 mg/kg | LD50: 62 mg/kg
